These are literature values, as cited in patent US7226619B1, “Material for controlling diversion of medications” (PharmoRx Inc., priority 2004, dated 2007).

By UniProt entry, the sequences of proteins in these tests, tags left out.
UniProt P10635, whole entry: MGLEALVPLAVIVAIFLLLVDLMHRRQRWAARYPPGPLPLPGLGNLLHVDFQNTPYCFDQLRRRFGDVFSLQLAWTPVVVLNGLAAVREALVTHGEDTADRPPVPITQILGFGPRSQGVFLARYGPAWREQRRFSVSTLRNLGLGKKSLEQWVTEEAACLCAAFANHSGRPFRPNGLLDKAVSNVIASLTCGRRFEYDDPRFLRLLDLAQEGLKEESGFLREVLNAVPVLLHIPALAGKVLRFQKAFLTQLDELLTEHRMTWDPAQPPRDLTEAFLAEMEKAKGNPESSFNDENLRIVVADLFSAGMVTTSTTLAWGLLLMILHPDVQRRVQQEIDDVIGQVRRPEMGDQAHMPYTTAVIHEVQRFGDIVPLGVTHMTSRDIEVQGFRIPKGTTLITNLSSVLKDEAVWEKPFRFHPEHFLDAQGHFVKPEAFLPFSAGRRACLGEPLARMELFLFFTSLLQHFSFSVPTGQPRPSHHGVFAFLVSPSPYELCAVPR

This series concerns the target 2D6 component of the P450 metabolic system (Homo sapiens, UniProt P10635).

For the compound `CNCCC(Oc1ccc(C(F)(F)F)cc1)c1ccccc1` (stereo not shown) [fluoxetine], the “inhibitor of 2D6 (in words)” value was “strong inhibitors”.
